Measured values as given in paper PMC10216605, “Developing In Vitro Models to Define the Role of Direct Mitochondrial Toxicity in Frequently Reported Drug-Induced Rhabdomyolysis” (Biomedicines, 2023).

Assays:
[1] = FAERS analysis of reported rhabdomyolysis cases per suspect drug; settings: for (%) of total rhabdomyolysis cases / Number of Rhabdomyolysis Cases / Number of Rhabdomyolysis Cases (n = 6583): FAERS 2004 to 31 March 2020; for (%) of total rhabdomyolysis cases: of 27,140 cases; for Number of Rhabdomyolysis Cases: total 27,140 rhabdomyolysis cases, some cases with more than one suspected drug; for (%) of monotherapy rhabdomyolysis cases: of 6583 cases; for Number of Rhabdomyolysis Cases (n = 6583): suspected drug reported as a single drug used (monotherapy)
L6 cells = assay: Acute metabolic switch assay (cellular ATP content, glucose vs galactose media) in L6 differentiated myotubes
Description: They were then seeded into collagen-coated wells (50 µg/mL in 0.02 M of acetic acid) at a density of 16,000 cells/100 μL/well (96 well plates) and 10,000 cells/100 μL/well (XF 96-well cell culture microplates). The cells were next incubated for 24 h in complete growth medium to promote adherence, after which the growth medium was removed and the cells washed twice with 1× HBSS. The L6 myoblasts were then cultured in differentiation medium consisting of high-glucose DMEM (25 mM) supplemented with L-glutamine (4 mM), sodium pyruvate (1 mM), HEPES (5 mM), and horse serum (2% v/v). Fresh differentiation medium was provided every 48 h for 7 days.
On the day of the assay, the media on the differentiated myotubes were replaced with either serum-free high-glucose (DMEM, 25 mM of glucose, 4 mM of L-glutamine, 1 mM of sodium pyruvate, and 5 mM of HEPES) or serum-free galactose (DMEM, 10 mM of galactose, 6 mM of L-glutamine, 1 mM of sodium pyruvate, and 5 mM of HEPES) media (100 µL) for 2 h (37 °C, 5% CO2). […]
The cellular ATP content was measured using a bioluminescence assay kit, alongside the concomitant measurement of protein using a bicinchoninic acid (BCA) assay kit to normalise ATP data to the total protein. […] The ATPase luminescence signal was measured immediately using a plate reader (Varioskan, Thermo Scientific, Schaumburg, IL USA).

Compound	(%) of total rhabdomyolysis cases [1] [%]	Number of Rhabdomyolysis Cases [1]	(%) of monotherapy rhabdomyolysis cases [1] [%]	Number of Rhabdomyolysis Cases (n = 6583) [1]	IC50-ATPglu/IC50-ATPgal (L6 cells)	Mitotoxicity classification in acute metabolic switch assay (L6 cells)	ROR (reported odds ratio) ([1]; rhabdomyolysis with suspected drug vs all other drugs in FAERS)
Cc1cc2c(s1)Nc1ccccc1N=C2N1CCN(C)CC1 [Olanzapine]	2.4	648	3.9	258	–	–	–
CC(C)C[C@H](CN)CC(=O)O [Pregabalin]	–	–	–	–	>2.6 (0.0049)	containing a mitochondrial liability	0.2
Cc1nc2n(c(=O)c1CCN1CCC(c3noc4cc(F)ccc34)CC1)CCCC2 [Risperidone]	2.4	654	1.8	121	–	–	–
